## Apparent affinities of Ab-14 variants for a coronavirus HR2 peptide

All variants were tested on one target, the spike HR2 peptide PDVDLGDISGINAS (SARS-CoV-2).

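Phage display of a naive human antibody library on the peptide gave the parent. AAYL50 was designed without a model: most single CDR substitutions and a random sample of double and triple ones. The scFvs were displayed on barcoded MATa yeast, the peptide on MATalpha yeast. Pairs that bind mate more often; barcode pairs of the diploids are counted by sequencing. Read counts were normalised to the haploid input and turned into Kd by a linear fit to BCL2-family pairs of known affinity, for each replicate. There are three technical replicates.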

The variants keep the heavy chain, the linker and the frameworks of Ab-14 (scFv order VH, the linker GGGGSGGGGSGGGGS, VL).
VH: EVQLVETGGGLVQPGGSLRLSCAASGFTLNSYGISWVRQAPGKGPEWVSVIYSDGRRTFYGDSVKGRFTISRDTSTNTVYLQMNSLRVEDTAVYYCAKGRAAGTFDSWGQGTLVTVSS
VL: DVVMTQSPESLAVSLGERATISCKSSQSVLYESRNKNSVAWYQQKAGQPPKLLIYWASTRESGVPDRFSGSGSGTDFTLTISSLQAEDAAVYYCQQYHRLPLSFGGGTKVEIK

Variants are written as CDR1, CDR2 and CDR3 of the light chain (limits as in the source). Parent: KSSQSVLYESRNKNSVA, WASTRES, QQYHRLPLS.
Scale: log10 of Kd in nM, estimated from mating counts; low values are strong binders.
Where no diploid with the target was found in that replicate, the entry reads "ND": below detection, most likely a poor binder, though not proof of it.

| CDR-L1 | CDR-L2 | CDR-L3 | log10 Kd (nM) by replicate | control signals |
|---|---|---|---|---|
| KSSQSVLYESRNKNSVA | SASTFES | QQYHRLPCS | ND ND ND | 0/9 |
| KSSSSVLYESRNKNSVA | WASTHES | QQYQRLPLS | 4.03 3.23 3.82 | 3/9 (4.42) |
| KSSQSVLYESRNKNSVA | WASTREL | QQYHRLPLS | 0.80 1.06 0.89 | 4/9 (5.50) |
| KSSQSVLYESRNKNSVA | WAWTRES | QEYHRLPTS | ND ND ND | 0/9 |
| KSSQSVLYESRNKNSVA | WASTRES | QQYHRLPRS | ND ND ND | 0/9 |
| KSSQSVFYESRNKNSVA | WAGTIES | QQYHRLPLS | ND 2.84 ND | 1/9 (3.15) |
| KSSQSVLYESRNKNSSD | WASTRES | QQYHHLPLS | 4.16 5.62 4.71 | 6/9 (4.69) |
| KSSQQCLYESRNKNSVA | WASTREY | QQYHRLPLS | 1.46 1.50 1.48 | 2/9 (5.63) |
| KSSQSVLYESRNKNSVA | WASTRED | QLYHRLPLT | ND ND ND | 2/9 (4.62) |
| KSSQSVLYESRNKNSVA | WLSTRES | QQYHLLDLS | ND 3.72 ND | 0/9 |
| KSSQKYLYESRNKNSVA | WASTRES | QQYHRLPLS | 0.84 1.07 1.17 | 3/9 (4.59) |
| KSTQSVLYESRNKNQVA | WASTRES | QQYTRLPLS | 1.87 1.74 1.68 | 2/9 (4.41) |
| CGSQSVLYESRNKNSVF | WASTRES | QQYHRLPLS | 1.17 1.34 0.90 | 0/9 |
| KSSQSVLYESRIKNSVA | WASTRES | QQYHRYPLS | 2.61 2.74 3.15 | 4/9 (4.33) |
| KSSQSVLYESRNKHSVA | WASTRES | QQYHRLPLS | 1.29 1.51 1.50 | 3/9 (3.91) |
| KSSQGVLYWNRNKNSVA | WASTRES | QQYHRLPLS | ND ND ND | 0/9 |
| KSSQSWLYESRNKNSVA | WASLRES | QQCHRLPLS | ND ND ND | 2/9 (4.85) |
| KSSQNVLYESRYKNSVA | WASTRES | QQQHRLPLS | ND ND ND | 0/9 |
| KSSQSVLNENRNKNSVA | WASMRES | QQYHRLPLS | 1.72 1.40 1.35 | 4/9 (4.49) |
| KSSQSVLYESRNKNADQ | WASTRES | QQYHRLPLS | ND ND ND | 1/9 (3.91) |
| KSSQSVLYESRNKNSVI | WASAREQ | QQYHRLPLS | ND 4.12 ND | 3/9 (3.89) |
| KSSQSVLYESRNKNSVA | WASTRPS | QQEHRLPLS | 2.95 2.29 2.46 | 1/9 (3.89) |
| KSSQSVLYEQRFKNSVA | WASTRES | QQYHRLPLS | 1.27 1.62 1.20 | 0/9 |
| KSSQSVLMESRNKNSVA | WEYTRES | QQYHRLPLS | 4.31 ND 3.01 | 0/9 |
| KSSGSVLEESRNKNSVN | WASTRES | QQYHRLPLS | ND ND ND | 0/9 |
| KLSQSVLYESRNKNSVQ | WASTRES | QDYHRLPLS | 3.52 2.61 3.42 | 7/9 (3.53) |
| KSSQSVLYESRLKNSVA | WASTRES | QQYHRLWLS | 0.64 1.24 0.80 | 0/9 |
| KSSQSVLYESINKNSVA | WASTRES | QLYHRAPLS | 2.15 2.28 2.12 | 5/9 (4.09) |
| KSSQSVLYESRNKNDVR | WASTRES | QQYHRLYLS | ND ND ND | 2/9 (3.95) |
| KSSQSVLYEFRAKNSVD | WASTRES | QQYHRLPLS | ND ND ND | 1/9 (3.90) |
| KSSQSVLYESRKKNSHA | WASTRES | QPYHRLPLS | ND ND ND | 0/9 |
| KSSQRVLYFSRNKNSVA | WASTRES | QQYHRLPLS | 3.90 3.90 3.96 | 3/9 (5.10) |
| KSSQSVLYESRNKNSVS | DISTRES | QQYHRLPLS | 0.87 1.03 0.93 | 4/9 (4.42) |
| KSSQSVLYESRNKNSVP | WASPRES | QQYKRLPLS | ND ND ND | 0/9 |
| SSSQSVLYESRNKNSVA | WANTRES | QQYHRLPLS | ND ND ND | 0/9 |
| KSSQSVLYESDNKNSVA | WASPRES | QQYHRLPLS | ND 4.25 ND | 0/9 |
| KSSQSVLNESHNKNSVA | WASTRES | QQYHRLPPS | 1.54 1.77 1.66 | 7/9 (5.11) |
| KSSQSVLYESRNKNSVA | WASTRET | QQYHRLPDS | 0.78 1.52 1.18 | 1/9 (4.27) |
| KSSQSVLYESINKNSVA | TASTRES | QQYHRLPLS | 0.62 1.31 1.24 | 0/9 |
| KSSQSVLHESRNKNSVA | WISYRES | QQYHRLPLS | 0.55 0.74 0.77 | 0/9 |
| KSSQSVLYESRNKNSGW | WASTRES | QQTHRLPLS | 4.95 5.10 5.59 | 5/9 (4.84) |
| KSSQSVLYESRNKNSVA | WASVIES | QHYHRLPLS | ND ND ND | 7/9 (4.29) |
| KSSQSVLYESSNKNSVL | WASTRES | QQYHRLPLY | 6.29 ND ND | 6/9 (4.42) |
| KSSQSVLYEQRNKNSVA | WTRTRES | QQYHRLPLS | ND 3.20 ND | 0/9 |
| KSSNSVLYESRGKNSVA | WASTRES | QQYHRKPLS | 0.68 0.32 0.18 | 0/9 |
| KSSQSVLYEQRNKNSVA | GASTRIS | QQYHRLPLS | -0.01 0.44 0.17 | 1/9 (4.41) |
| KSSQKVLYESRNCNSVA | WASTRES | QQYHRLNLS | ND ND 5.56 | 2/9 (3.68) |
| KSSQSVLYEWRNKLSVA | WASTRES | QQHHRLPLS | ND 4.08 ND | 2/9 (3.35) |
| KSSQSVWYESRNKNSVA | WASTRPS | QQYHRSPLS | ND 3.25 ND | 1/9 (3.77) |
| KSSQSVAYESRNKNSVA | WASCRES | QQYHALPLS | ND ND ND | 0/9 |
| KGSQSVLYESRNKRSVA | WASTRES | QQYHYLPLS | ND 2.18 2.13 | 0/9 |

Picked from the list: the 6 lowest averages where every replicate gave a value.

| CDR-L1 | CDR-L2 | CDR-L3 | log10 Kd (nM) by replicate | control signals |
|---|---|---|---|---|
| KSSQSVLYEQRNKNSVA | GASTRIS | QQYHRLPLS | -0.01 0.44 0.17 | 1/9 (4.41) |
| KSSNSVLYESRGKNSVA | WASTRES | QQYHRKPLS | 0.68 0.32 0.18 | 0/9 |
| KSSQSVLHESRNKNSVA | WISYRES | QQYHRLPLS | 0.55 0.74 0.77 | 0/9 |
| KSSQSVLYESRLKNSVA | WASTRES | QQYHRLWLS | 0.64 1.24 0.80 | 0/9 |
| KSSQSVLYESRNKNSVA | WASTREL | QQYHRLPLS | 0.80 1.06 0.89 | 4/9 (5.50) |
| KSSQSVLYESRNKNSVS | DISTRES | QQYHRLPLS | 0.87 1.03 0.93 | 4/9 (4.42) |

As a blank, each scFv also met three strains without target: over library AAYL50, 18% of these pairings were detected, typically at 4.19 and seldom below 2.99. Also given: how often the same scFv was detected with the empty control strains, with their mean in brackets.

Values reported by Engelhart et al. 2022, doi:10.1038/s41597-022-01779-4 (FLAb copy).